The values below are quoted from earlier work in article PMC10514295, “Imidazo[1,2-c]quinazolines as a novel and potent scaffold of α-glucosidase inhibitors: design, synthesis, biological evaluations, and in silico studies” (Scientific Reports, 2023).

The conditions of this data set: cited from earlier work.

Each structure is given as a SMILES string.

Take `C[C@H]1O[C@H](O[C@H]2[C@H](O)[C@@H](O)[C@@H](O[C@H]3[C@H](O)[C@@H](O)C(O)O[C@@H]3CO)O[C@@H]2CO)[C@H](O)[C@@H](O)[C@@H]1N[C@H]1C=C(CO)[C@@H](O)[C@H](O)[C@H]1O` (stereo partly shown) [Acarbose, acarbose]: the systemic absorption entry was “below 2 % of the administered dose”.
